Results: PMC4645461, “Increased food intake with oxyntomodulin analogues” (Peptides, 2015)

The chains behind the UniProt entries cited, without tags or fusion partners. Residues count along the entry.
UniProt P30082, 27-485: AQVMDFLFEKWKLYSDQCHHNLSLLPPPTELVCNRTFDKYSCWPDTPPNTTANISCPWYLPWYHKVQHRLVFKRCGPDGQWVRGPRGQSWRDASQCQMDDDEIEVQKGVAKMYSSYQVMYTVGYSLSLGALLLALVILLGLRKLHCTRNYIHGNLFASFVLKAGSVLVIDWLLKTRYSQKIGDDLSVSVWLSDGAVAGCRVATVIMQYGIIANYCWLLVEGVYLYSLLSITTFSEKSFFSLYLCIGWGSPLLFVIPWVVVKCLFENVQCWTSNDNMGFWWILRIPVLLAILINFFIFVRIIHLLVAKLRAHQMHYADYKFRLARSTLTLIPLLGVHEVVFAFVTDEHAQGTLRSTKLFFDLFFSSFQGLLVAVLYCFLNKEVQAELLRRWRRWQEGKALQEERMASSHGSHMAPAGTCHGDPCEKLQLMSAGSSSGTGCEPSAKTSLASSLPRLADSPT

How the values were obtained:
rat glucagon receptor = molecular target: T1, rat glucagon receptor (Rattus norvegicus, UniProt P30082); experiment: cAMP accumulation, CHO-K1 cells over-expressing the rat glucagon receptor; type: cell-based; details: 30 min peptide stimulation at room temperature, serum free DMEM, 1 mM IBMX, cAMP by ELISA (405 nm), average EC50 of 3–5 independent experiments ± SEM, read-out: cAMP EC50 ± SEM, Rat Gcgr
T1 construct: host or cells: CHO-K1
Procedure: For cAMP studies, cells were seeded at a density of 150000 cells/ml in a 48 well plate (Nunc, VWR International Inc., Chicago, USA) and incubated for 24 h. Cells were serum starved for 1 h and then incubated for 30 mins at room temperature with a range of peptide concentrations diluted in serum free DMEM (Sigma–Aldrich, Dorset, UK) in the presence of 1 mM IBMX (3-isobutyl-1-methylxanthine, Sigma–Aldrich). […] EC50’s were calculated using Prism v5 (GraphPad Software Inc., San Diego, CA, USA). Concentrations were applied in duplicate or triplicate per experiment and each experiment repeated a minimum of 3 times.
All food and bodyweight data are presented as mean ± SEM. […] Differences in 0–7 days cumulative food intake and bodyweight data were analysed using one way ANOVA and post hoc tests with Dunnett’s or Bonferroni corrections for multiple comparisons (Prism v5, GraphPad Software Inc. San Diego, CA, USA). cAMP EC50’s were calculated using a sigmoidal dose response curve and non-linear regression (Prism v5). […] In all cases P < 0.05 was considered statistically significant.

[1] = cited from earlier work; for half-life: no reference given
Text: The proglucagon peptides, for example, are susceptible to degradation by the enzyme dipetidylpeptidase-IV (DPPIV). […] With both OXM14 and ...

Question: Which EC50 (rat glucagon receptor) does the source give for GLP-1(7-36NH2) here?
Answer: > 1000 nM

Question: Which “half-life” value [1] does the source give for oxyntomodulin [OXM] here?
Answer: short half-lives

Question: And the “half-life of native oxyntomodulin” value ([1]; ref [24])?
Answer: very short half-life

Question: Which “half-life” value [1] does the source give for Exendin-4 here?
Answer: longer half-life
